These are literature values, as cited in PubChem BioAssay AID1811 (Shanghai Institute of Organic Chemistry, 2009).

The data set deals with sialic acid binding protein hi0146. Briefly: PubChem AID 1811. The note with it: PDB complex binding affinities from literature.

The other results are listed elsewhere or left out. Activity calls are given as the source filed them. Unless stated, no cut-off for active and inactive is given here.

Consider `CC(=O)N[C@H]1[C@H]([C@H](O)[C@H](O)CO)OC(C(=O)O)=C[C@@H]1O`, for which the compound was called active.
